According to ChEMBL document CHEMBL3885881, “DrugMatrix”:

Tests used:
[1] = organism: Rattus norvegicus; experiment: DrugMatrix - Regimen: Daily Repeat; type: toxicity, organism-based, Sprague-Dawley; parameters: regimen Daily Repeat, gender Male, age 6-8 weeks; conditions: in vivo
[2] = organism: Rattus norvegicus; type: toxicity, organism-based, Sprague-Dawley; conditions: in vivo, ip, 24 h, tissue Blood, route intraperitoneal, time 1 day, vehicle .1 % RSA/SALINE
[3] = ip, 0 mg/kg, […], tissue Plasma, route intraperitoneal, dose level Control, time 14 day, vehicle 100 % SALINE
[4] = ip, 0 mg/kg, […], tissue Plasma, route intraperitoneal, dose level Control, time 28 day, vehicle 100 % SALINE
[5] = 0 mg/kg, vehicle control, dose level Control

COBALT(II) ACETYLACETONATE was tested, and the NEUTROPHIL ([1]; sc, 0 mg/kg, 72 h, tissue Blood, route subcutaneous, dose level Control, time 3 day, […]) was 16.5% and the CHLORIDE ([1]; sc, 0 mg/kg, 120 h, tissue Plasma, route subcutaneous, dose level Control, time 5 day, […]) was 105.17 MEQ/L.

With Diet_Restriction the HEMATOCRIT ([1]; 0 mg/kg, […], tissue Blood, route none, dose level Control, time 14 day, vehicle 100 % UNTREATED) was 37.5%, the LIPASE ([1]; 50 mg/kg, […], tissue Plasma, route none, dose level Low, time 14 day, vehicle 100 % UNTREATED) was 9.33 u/L and the LIPASE ([1]; 60 mg/kg, 120 h, tissue Plasma, route none, dose level M1, time 5 day, vehicle 100 % UNTREATED) was 9.33 u/L. It also gave an LIPASE ([1]; 75 mg/kg, 120 h, tissue Plasma, route none, dose level High, time 5 day, vehicle 100 % UNTREATED) of 9.33 u/L.

With GOLD SODIUM THIOMALATE the ALBUMIN [1, 3] was 4.05 G/DL, the “URIC ACID” value [1, 3] was 1.57 mg/dL and the CHLORIDE [1, 4] was 105.4 MEQ/L.

Work on INSULIN HUMAN yielded an LIPASE ([1]; iv, 0 mg/kg, 72 h, tissue Plasma, dose level Control, time 3 day, vehicle 100 % SALINE) of 9.33 u/L, an HEMOGLOBIN ([1]; iv, 0 mg/kg, 120 h, tissue Blood, dose level Control, time 5 day, vehicle 100 % SALINE) of 13.42 G/DL and a PHOSPHORUS ([1]; iv, […], 72 h, tissue Plasma, dose 0.56 mg/Kg, dose level High, time 3 day, vehicle 100 % SALINE) of 10.23 mg/dL.

In the case of INTERLEUKIN 1 BETA, RAT, the MONOCYTE [2, 5] is reported as 2.33%.

INTERLEUKIN 6, RAT was tested, and the MONOCYTE [2, 5] was 2.33%.

With LEAD (II) ACETATE the ALBUMIN [1, 3] was 4.05 G/DL, the “URIC ACID” value [1, 3] was 1.57 mg/dL and the CHLORIDE [1, 4] was 105.4 MEQ/L. The “MEAN CORPUSCULAR HEMOGLOBIN CONCENTRATION” value ([1]; po, 600 mg/kg, 72 h, tissue Blood, route oral GAVAGE, dose level High, time 3 day, vehicle 100 % SALINE) was 39.43 G/DL.

MANGANESE CHLORIDE ANHYDROUS gave an NEUTROPHIL ([1]; po, 70 mg/kg, 72 h, tissue Blood, route oral GAVAGE, dose level Low, time 3 day, vehicle 100 % WATER) of 9.33% and an LIPASE ([1]; po, 70 mg/kg, 120 h, tissue Plasma, route oral GAVAGE, dose level Low, time 5 day, vehicle 100 % WATER) of 7.33 u/L.

With SODIUM ORTHOVANAD the CHLORIDE ([1]; po, 83 mg/kg, 120 h, tissue Plasma, route oral GAVAGE, dose level High, time 5 day, vehicle .5 % CMC) was 105 MEQ/L, the HEMOGLOBIN ([1]; po, […], 120 h, tissue Blood, route oral GAVAGE, dose 8.3 mg/Kg, dose level Low, time 5 day, vehicle .5 % CMC) was 13.4 G/DL and the CHLORIDE ([1]; po, […], 120 h, tissue Plasma, route oral GAVAGE, dose 8.3 mg/Kg, dose level Low, time 5 day, vehicle .5 % CMC) was 104.67 MEQ/L.

For TNF-ALPHA, RAT, the MONOCYTE [2, 5] was 2.33% and the MONOCYTE ([2]; […], dose 0.25 mg/Kg, dose level High) was 2.33%.

TRANSPLATIN was tested, and the CHLORIDE [1, 4] was 105.4 MEQ/L.

ZIRCONIUM(IV) CHLORIDE showed an ALBUMIN ([1]; po, 0 mg/kg, 72 h, tissue Plasma, route oral GAVAGE, dose level Control, time 3 day, […]) of 3.75 G/DL, an HEMOGLOBIN ([1]; po, 0 mg/kg, 120 h, tissue Blood, route oral GAVAGE, dose level Control, time 5 day, […]) of 13.38 G/DL and an ALBUMIN ([1]; po, 0 mg/kg, 120 h, tissue Plasma, route oral GAVAGE, dose level Control, time 5 day, […]) of 4.12 G/DL. For the same substance, the LIPASE ([1]; po, […], 72 h, tissue Plasma, route oral GAVAGE, dose 6.3 mg/Kg, dose level Low, time 3 day) was 9.33 u/L and the LIPASE ([1]; po, […], 120 h, tissue Plasma, route oral GAVAGE, dose 6.3 mg/Kg, dose level Low, time 5 day) was 9.33 u/L.
